Patent publication US6506766B1 (Abbott Laboratories, priority 1998, dated 2003)

Legend:
[1] = target: T1, human glucocorticoid receptor-α [GRX] isoform (Homo sapiens, UniProt P04150); assay: Radioligand binding with human glucocorticoid receptor cytosol ([3H]-dexamethasone competition); conditions: GRX cytosol expressed in insect SF21 cells, [3H]-Dex ~0.9 nM, 4° C. overnight; Ki by Cheng-Prusoff, KL ~1.5 nM; read-out: Ki (nM) GR
T1 construct: host or cells: insect SF21 cells (baculovirus)
T1 sequence (P04150 1-777): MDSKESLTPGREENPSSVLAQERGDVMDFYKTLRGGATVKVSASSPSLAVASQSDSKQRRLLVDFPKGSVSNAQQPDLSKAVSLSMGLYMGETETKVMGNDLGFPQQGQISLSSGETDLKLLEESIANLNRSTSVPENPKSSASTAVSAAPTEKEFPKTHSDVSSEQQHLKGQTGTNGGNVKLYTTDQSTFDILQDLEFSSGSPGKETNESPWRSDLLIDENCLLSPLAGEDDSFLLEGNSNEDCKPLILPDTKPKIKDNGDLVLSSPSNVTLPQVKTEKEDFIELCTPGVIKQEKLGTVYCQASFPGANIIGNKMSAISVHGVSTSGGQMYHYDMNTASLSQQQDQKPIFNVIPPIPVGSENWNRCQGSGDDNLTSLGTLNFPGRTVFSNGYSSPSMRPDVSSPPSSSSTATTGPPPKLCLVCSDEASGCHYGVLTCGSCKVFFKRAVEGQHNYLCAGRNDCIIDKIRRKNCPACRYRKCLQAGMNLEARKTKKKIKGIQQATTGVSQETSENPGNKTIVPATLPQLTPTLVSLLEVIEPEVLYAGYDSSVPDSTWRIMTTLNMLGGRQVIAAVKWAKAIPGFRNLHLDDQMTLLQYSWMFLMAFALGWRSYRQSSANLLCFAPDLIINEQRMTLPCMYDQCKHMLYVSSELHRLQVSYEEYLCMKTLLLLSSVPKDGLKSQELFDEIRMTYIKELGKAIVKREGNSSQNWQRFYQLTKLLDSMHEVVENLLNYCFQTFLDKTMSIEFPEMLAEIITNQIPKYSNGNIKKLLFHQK

[2] = target: T2, human progesterone receptor-A [PRA] isoform (Homo sapiens, UniProt P06401); assay: Radioligand binding with human progesterone receptor cytosol ([3H]-progesterone competition); conditions: PRA cytosol expressed in insect SF21 cells, [3H]Prog ~0.8 nM, 4° C. overnight; Ki by Cheng-Prusoff, KL ~4.5 nM; read-out: Ki (nM) PR
T2 construct: host or cells: insect SF21 cells (baculovirus)
T2 sequence (P06401 1-769 isoform P06401-2): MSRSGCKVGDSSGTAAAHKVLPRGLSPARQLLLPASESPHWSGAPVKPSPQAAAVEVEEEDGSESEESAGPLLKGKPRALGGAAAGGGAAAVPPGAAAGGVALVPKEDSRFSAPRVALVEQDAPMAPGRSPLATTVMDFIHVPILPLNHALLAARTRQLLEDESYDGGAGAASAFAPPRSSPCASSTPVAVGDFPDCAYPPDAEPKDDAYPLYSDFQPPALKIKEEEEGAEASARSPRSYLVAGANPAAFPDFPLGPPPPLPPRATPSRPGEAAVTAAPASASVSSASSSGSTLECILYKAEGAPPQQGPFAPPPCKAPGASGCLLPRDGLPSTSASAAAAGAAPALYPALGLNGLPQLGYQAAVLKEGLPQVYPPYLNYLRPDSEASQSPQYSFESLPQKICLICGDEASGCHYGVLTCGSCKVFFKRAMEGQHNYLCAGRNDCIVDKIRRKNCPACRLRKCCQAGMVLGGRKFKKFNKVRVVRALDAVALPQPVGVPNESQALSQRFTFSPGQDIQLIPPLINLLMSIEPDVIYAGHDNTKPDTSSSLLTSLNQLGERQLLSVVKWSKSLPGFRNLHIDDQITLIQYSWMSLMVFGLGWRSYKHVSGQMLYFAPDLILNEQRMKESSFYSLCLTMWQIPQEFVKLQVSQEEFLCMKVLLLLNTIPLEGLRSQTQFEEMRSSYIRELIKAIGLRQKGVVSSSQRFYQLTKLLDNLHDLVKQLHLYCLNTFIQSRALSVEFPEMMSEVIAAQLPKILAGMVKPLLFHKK

| Substance | Ki [1] [nM] | Ki [2] [nM] |
| --- | --- | --- |
| 2,5-Dihydro-10-methoxy-2,2,4-trimethyl-(-methylene 1H-[1]benzopyrano[3,4-f]quinoline5-propanol [Example 62] | 12 | ≥ 10000 |
| 2,5-Dihydro-10-methoxy-2,2-[spiro(hexyl)]-5-allyl-1H-[1]benzopyrano[3,4-f]quinoline [Example 360] | 33.7 | ≥ 10000 |
| 2,5-Dihydro-10-methoxy-5-(3-(N-methyl-N-(N-methylcarbonyl)aminocarbonyloxy)phenyl)-2,2,4-trimethyl-1H-[1]benzopyrano[3,4-f]quinoline [Example 312] | 8.4 | ≥ 10000 |
| 2,5-Dihydro-10-methoxy-5-(3-(N-methyl-N-(N-methylcarbonyl)aminocarbonyloxy)phenyl)-2,2,4-trimethyl-1H-[1]benzopyrano[3,4-f]quinoline [Example 313] | 6.4 | ≥ 10000 |
| 2,5-Dihydro-10-methoxy-5-(3-butenyl)-2,2,4-trimethyl-1H-[1]benzopyrano[3,4-f]quinoline [Example 138] | 2.2 | 5600 |
| 2,5-Dihydro-10-methoxy-5-(3-hydroxy-3-propenyl)-2,2,4-trimethyl-1H-[1]benzopyrano[3,4-f]quinoline [Example 184] | 40 | ≥ 10000 |
| 10-Methoxy-5-(1-butylidene)-2,5-dihydro-5-phenyl-2,2,4-trimethyl-1H-[1]benzopyrano[3,4-f]quinoline [Example 356] | 15 | 2970 |
| 10-Methoxy-5-(4,5-dimethyl-1,3-oxazol-2-yl)methyidene-2,5-dihydro-5-phenyl-2,2,4-trimethyl-1H-[1]benzopyrano[3,4-f]quinoline [Example 351] | 93 | ≥ 10000 |
| 10-Methoxy-5-(5-methylisoxazol-3-yl)methyidene-2,5-dihydro-5-phenyl-2,2,4-trimethyl1H-[1]benzopyrano[3,4-f]quinoline [Example 349] | 10.5 | ≥ 10000 |
| 10-Methoxy-5-(but-3-enylidene)-2,5-dihydro-5-phenyl-2,2,4-trimethyl-1H-[1]benzopyrano[3,4-f]quinoline [Example 354] | 32 | 1500 |
| 10-Methoxy-5-(pyridin-2-yl)methyidene-2,5-dihydro-5-phenyl-2,2,4-trimethyl-1H-[1]benzopyrano[3,4-f]quinoline [Example 353] | 20 | ≥ 10000 |
| (+)(5R,3′R)-9-Hydroxy-5-[1-methyl-3-cyclohexenyl]-10-methoxy-2,2,4-trimethyl-2,5-dihydro-1H-[1]benzopyrano[3,4-f]quinoline [Example 239] | 16.8 | 240 |
| (−)(5S,3′R)-9-Hydroxy-5-[1-methyl-3-cyclohexenyl]-10-methoxy-2,2,4-trimethyl-2,5-dihydro-1H-[1]benzopyrano[3,4-f]quinoline [Example 241] | 0.69 | 61.1 |
| rel (5R,3′S) 2,5-Dihydro-10-methoxy-5-(1-methyl-3-cyclohexenyl)-2,2,4-trimethyl-1H-[1]benzopyrano[3,4-f]quinoline [Example 153] | 1.9 | ≥ 10000 |
| rel-(5S)-9-Hydroxy-5-[(3S)-(1-hydroxymethyl)cyclohexen-3-yl]-10-methoxy-2,2,4-trimethyl-2,5-dihydro-1H-[1]benzopyrano[3,4-f]quinoline [Example 414] | 93.2 | 21800 |
| rel-(5S,3′R)-9-Hydroxy-5-[1-methoxymethyl-3-cyclohexenyl]-10-methoxy-2,2,4-trimethyl-2,5-dihydro-1H-[1]benzopyrano[3,4-f]quinoline [Example 375] | 3 | 1090 |
| rel-(5S,3′R)-9-Hydroxy-10-methoxy-5-[1-hydroxymethyl-3-cyclohexenyl]2,2,4-trimethyl-2,5-dihydro-1H-[1]benzopyrano[3,4-f]quinoline [Example 220] | 0.66 | 527 |
